Reference: patent publication US9340590B2 (priority 2011, dated 2016)
Like-named read-outs stand apart in the source and are kept apart here.

Protein sequences, listed by entry. Tags and fused reporters are not part of them.
UniProt Q9NY46, whole entry, looked up: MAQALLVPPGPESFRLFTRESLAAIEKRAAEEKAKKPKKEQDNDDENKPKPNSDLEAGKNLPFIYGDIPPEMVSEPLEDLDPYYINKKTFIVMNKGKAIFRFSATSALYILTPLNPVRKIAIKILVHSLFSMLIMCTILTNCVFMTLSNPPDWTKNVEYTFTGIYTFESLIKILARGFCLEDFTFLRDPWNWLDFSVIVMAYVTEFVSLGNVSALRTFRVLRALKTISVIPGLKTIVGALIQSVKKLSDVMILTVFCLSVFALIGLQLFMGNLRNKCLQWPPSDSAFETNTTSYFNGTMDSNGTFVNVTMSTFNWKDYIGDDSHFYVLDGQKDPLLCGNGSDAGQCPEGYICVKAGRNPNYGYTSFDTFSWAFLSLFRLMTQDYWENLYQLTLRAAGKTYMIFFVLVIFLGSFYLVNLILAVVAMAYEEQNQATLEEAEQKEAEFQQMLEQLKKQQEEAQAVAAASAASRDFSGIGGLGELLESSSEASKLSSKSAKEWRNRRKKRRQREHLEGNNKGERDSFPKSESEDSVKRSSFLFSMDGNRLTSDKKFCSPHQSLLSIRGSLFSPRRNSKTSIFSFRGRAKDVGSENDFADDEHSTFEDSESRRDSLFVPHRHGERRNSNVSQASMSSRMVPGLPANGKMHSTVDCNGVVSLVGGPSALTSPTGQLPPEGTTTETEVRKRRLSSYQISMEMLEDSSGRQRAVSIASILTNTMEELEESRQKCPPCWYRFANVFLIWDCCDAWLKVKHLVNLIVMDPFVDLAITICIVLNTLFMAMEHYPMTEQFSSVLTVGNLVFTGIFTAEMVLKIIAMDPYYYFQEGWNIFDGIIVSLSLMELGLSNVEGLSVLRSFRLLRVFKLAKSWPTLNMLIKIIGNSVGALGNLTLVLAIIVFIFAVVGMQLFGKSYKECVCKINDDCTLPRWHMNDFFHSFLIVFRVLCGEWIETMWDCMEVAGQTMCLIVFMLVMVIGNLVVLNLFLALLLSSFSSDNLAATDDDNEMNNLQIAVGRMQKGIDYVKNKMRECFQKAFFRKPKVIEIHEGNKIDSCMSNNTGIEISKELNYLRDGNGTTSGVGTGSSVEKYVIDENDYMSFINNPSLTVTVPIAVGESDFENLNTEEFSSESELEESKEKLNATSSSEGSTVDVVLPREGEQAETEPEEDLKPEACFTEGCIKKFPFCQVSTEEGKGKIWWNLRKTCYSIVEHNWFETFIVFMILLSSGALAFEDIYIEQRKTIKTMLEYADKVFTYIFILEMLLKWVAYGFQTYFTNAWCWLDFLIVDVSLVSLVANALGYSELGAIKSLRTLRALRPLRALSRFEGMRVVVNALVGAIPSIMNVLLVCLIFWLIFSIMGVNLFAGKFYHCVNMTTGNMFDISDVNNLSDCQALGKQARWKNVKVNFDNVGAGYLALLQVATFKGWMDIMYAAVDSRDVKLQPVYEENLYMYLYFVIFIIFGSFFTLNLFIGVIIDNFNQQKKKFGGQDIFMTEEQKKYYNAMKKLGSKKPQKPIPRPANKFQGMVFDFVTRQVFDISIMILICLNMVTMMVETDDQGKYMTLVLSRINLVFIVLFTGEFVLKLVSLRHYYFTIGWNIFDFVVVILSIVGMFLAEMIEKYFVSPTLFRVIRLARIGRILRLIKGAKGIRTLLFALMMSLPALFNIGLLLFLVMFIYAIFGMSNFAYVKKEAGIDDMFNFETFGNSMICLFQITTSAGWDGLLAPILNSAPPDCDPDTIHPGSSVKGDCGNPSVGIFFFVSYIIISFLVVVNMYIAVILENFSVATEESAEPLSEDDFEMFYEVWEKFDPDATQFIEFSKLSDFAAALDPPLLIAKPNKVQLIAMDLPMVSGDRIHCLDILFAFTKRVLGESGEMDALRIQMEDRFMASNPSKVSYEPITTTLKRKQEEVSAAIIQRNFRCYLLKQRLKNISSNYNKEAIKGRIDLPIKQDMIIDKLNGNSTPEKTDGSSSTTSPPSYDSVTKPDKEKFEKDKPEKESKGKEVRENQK
UniProt Q15858, whole entry, looked up: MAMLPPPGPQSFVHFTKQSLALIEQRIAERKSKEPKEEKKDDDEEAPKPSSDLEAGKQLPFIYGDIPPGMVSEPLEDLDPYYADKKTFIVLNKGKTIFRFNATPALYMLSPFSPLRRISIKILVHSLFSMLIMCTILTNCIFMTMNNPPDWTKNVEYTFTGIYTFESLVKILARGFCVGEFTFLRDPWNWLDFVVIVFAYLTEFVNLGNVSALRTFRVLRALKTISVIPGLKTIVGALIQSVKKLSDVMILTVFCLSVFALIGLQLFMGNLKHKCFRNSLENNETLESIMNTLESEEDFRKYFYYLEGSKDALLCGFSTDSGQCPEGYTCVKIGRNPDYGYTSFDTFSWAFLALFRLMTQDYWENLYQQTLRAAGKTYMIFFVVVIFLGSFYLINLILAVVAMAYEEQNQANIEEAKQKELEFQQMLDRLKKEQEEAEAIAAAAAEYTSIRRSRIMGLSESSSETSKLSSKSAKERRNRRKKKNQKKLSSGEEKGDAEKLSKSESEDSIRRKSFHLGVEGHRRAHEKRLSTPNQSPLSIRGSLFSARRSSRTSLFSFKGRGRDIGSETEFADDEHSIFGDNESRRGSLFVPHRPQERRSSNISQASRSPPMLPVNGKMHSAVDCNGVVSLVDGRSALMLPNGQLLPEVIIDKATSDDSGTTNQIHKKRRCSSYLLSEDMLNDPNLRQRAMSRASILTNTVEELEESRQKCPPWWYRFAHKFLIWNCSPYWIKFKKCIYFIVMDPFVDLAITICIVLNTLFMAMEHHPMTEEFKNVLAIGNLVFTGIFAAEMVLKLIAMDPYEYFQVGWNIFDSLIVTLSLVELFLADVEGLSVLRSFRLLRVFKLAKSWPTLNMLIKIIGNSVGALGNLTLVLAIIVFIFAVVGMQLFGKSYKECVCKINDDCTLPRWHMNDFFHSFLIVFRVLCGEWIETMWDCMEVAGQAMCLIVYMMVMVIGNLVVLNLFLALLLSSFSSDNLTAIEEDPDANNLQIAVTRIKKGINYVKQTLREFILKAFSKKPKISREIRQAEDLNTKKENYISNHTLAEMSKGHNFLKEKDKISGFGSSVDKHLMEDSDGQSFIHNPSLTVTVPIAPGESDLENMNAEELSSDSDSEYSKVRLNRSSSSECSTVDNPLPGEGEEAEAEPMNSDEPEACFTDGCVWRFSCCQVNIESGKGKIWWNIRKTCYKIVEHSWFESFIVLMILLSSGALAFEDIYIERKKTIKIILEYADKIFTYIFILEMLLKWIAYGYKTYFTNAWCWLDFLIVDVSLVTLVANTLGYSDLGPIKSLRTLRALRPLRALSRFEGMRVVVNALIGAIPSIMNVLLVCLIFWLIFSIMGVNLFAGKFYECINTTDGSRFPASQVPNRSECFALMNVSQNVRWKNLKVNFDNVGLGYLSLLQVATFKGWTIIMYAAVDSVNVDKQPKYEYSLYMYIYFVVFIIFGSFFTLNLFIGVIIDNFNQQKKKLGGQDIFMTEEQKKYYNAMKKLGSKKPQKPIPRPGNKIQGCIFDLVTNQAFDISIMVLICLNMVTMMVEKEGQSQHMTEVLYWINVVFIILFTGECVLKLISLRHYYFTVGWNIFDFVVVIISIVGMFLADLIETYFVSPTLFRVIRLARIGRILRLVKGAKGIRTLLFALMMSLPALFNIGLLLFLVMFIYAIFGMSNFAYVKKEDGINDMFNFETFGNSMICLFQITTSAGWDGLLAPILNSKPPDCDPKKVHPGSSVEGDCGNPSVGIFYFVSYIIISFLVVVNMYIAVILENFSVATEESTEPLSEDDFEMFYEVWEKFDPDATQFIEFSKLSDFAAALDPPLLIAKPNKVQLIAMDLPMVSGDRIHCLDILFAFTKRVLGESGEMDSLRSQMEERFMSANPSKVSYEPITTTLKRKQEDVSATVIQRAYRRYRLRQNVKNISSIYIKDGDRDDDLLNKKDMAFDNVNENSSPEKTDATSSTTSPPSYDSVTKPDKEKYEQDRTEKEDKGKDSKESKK
UniProt Q14524, whole entry, looked up: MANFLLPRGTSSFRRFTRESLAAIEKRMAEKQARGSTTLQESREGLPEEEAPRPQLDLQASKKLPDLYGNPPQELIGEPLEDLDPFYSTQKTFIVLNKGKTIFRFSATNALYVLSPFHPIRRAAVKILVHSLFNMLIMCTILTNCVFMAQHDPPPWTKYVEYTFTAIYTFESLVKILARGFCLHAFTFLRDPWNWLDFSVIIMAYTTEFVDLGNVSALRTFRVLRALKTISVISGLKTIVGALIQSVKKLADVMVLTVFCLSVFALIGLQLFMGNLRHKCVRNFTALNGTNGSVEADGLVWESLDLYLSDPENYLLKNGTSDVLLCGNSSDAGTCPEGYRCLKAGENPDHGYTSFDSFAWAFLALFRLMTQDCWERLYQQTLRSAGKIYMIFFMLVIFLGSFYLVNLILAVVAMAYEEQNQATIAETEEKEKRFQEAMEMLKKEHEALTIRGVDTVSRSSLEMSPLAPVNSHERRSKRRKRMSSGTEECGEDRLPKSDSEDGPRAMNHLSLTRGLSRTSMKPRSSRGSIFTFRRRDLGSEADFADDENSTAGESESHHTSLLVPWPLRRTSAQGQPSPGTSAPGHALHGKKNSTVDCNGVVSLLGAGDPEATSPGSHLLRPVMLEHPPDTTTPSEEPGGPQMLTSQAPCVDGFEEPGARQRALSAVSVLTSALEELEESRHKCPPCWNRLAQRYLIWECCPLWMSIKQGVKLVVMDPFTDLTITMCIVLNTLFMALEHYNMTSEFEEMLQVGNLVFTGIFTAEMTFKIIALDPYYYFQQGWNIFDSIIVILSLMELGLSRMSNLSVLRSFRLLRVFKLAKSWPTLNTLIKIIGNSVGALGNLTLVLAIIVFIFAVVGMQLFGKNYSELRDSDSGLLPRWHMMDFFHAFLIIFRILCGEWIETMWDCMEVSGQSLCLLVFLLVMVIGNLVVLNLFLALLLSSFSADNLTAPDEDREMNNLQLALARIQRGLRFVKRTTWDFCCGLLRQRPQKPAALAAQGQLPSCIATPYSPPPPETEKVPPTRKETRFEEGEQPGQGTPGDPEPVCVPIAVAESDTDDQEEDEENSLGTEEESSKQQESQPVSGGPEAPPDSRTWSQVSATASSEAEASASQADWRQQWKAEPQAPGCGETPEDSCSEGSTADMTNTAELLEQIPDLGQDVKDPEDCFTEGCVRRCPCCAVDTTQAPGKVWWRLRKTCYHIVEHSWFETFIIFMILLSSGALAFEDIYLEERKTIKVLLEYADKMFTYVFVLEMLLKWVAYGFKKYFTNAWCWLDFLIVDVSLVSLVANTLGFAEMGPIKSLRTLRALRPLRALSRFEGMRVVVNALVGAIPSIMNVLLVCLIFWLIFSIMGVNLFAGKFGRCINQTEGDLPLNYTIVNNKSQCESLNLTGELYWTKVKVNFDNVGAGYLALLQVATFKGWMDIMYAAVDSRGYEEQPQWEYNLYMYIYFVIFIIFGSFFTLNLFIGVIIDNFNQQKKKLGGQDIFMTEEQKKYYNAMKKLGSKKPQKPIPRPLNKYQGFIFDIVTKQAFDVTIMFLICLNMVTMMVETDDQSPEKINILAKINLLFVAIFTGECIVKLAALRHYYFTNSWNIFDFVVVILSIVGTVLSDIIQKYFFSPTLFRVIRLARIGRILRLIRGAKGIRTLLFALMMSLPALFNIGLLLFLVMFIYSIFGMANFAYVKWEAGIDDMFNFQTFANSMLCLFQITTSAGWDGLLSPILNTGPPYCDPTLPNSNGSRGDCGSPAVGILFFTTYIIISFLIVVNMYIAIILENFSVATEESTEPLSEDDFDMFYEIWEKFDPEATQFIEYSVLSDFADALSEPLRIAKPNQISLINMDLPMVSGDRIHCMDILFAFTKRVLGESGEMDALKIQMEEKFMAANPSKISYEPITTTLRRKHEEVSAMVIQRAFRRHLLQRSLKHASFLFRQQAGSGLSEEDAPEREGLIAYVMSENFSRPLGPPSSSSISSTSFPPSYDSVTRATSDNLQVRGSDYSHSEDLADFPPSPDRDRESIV

Assays:
hNav1.3 [1] = target: T1, hNav1.3 (Homo sapiens, UniProt Q9NY46); test: cell-based; conditions: Nav1.3 Use IC50
hNav1.7 [2] = target: T2, hNav1.7 (Homo sapiens, UniProt Q15858); test: cell-based; type: cell-based; conditions: Nav1.7 Use IC50
hNav1.5 = hNav1.5 (Homo sapiens, UniProt Q14524); test: cell-based; conditions: IonWorks Quattro, use-dependent block, read-out: IWQ Use Nav1.5
hNav1.7 [3] = target: T2, hNav1.7; test: cell-based
hNav1.3 [4] = target: T1, hNav1.3; test: cell-based
hNav1.7 [5] = target: T2, hNav1.7; type: cell-based
[6] = IonWorks Quattro, use-dependent block, hNav1.7, read-out: IWQ Use Nav1.7

## CC[C@H](C)[C@@H]1NC(=O)[C@@H]2CSSC[C@@H]3NC(=O)[C@H](C(C)C)NC(=O)[C@H](CC(C)C)NC(=O)[C@H](CC(N)=O)NC(=O)[C@@H]4CCCN4C(=O)[C@H](CCCNC(=N)N)NC(=O)[C@H](CSSC[C@H](NC(=O)[C@@H](N)CC(=O)O)C(=O)N[C@@H](CC(C)C)C(=O)NCC(=O)N[C@@H](C)C(=O)N[C@@H](Cc4ccccc4)C(=O)N[C@@H](CCCNC(=N)N)C(=O)N[C@@H](CCCCN)C(=O)N2)NC(=O)[C@H](CSSC[C@@H](C(=O)N[C@@H](CCCCN)C(=O)N[C@@H](Cc2ccc(O)cc2)C(=O)N[C@H](C(=O)N[C@@H](Cc2ccccc2)C(N)=O)C(C)C)NC(=O)[C@H](Cc2c[nH]c4ccccc24)NC(=O)[C@H](CCCCN)NC(=O)[C@H](Cc2cnc[nH]2)NC(=O)[C@H]([C@@H](C)O)NC(=O)[C@H](CCCNC(=N)N)NC(=O)[C@H](CO)NC3=O)NC(=O)[C@H](CCCCN)NC(=O)[C@H](CC(=O)O)NC(=O)[C@H](CC(N)=O)NC(=O)[C@H](CC(=O)O)NC(=O)[C@@H]2CCCN2C1=O [[Ala5;Phe6]GpTx-1(1-34)]
hNav1.3 [1]
  IC50: 0.022 µM
hNav1.7 [2]
  IC50: 0.012 µM

## CC[C@H](C)[C@@H]1NC(=O)[C@@H]2CSSC[C@@H]3NC(=O)[C@H](C(C)C)NC(=O)[C@H](CC(C)C)NC(=O)[C@H](CC(N)=O)NC(=O)[C@@H]4CCCN4C(=O)[C@H](CCCNC(=N)N)NC(=O)[C@H](CSSC[C@H](NC(=O)[C@@H](N)CC(=O)O)C(=O)N[C@@H](CC(C)C)C(=O)NCC(=O)N[C@@H](C)C(=O)N[C@@H](Cc4ccccc4)C(=O)N[C@@H](CCCNC(=N)N)C(=O)N[C@@H](CCCCN)C(=O)N2)NC(=O)[C@H](CSSC[C@@H](C(=O)N[C@@H](CCCCN)C(=O)N[C@@H](Cc2ccc(O)cc2)C(=O)N[C@H](C(=O)N[C@@H](Cc2ccccc2)C(N)=O)C(C)C)NC(=O)[C@H](Cc2c[nH]c4ccccc24)NC(=O)[C@H](CCCCN)NC(=O)[C@H](Cc2cnc[nH]2)NC(=O)[C@H]([C@@H](C)O)NC(=O)[C@H](CCCNC(=N)N)NC(=O)[C@H](CO)NC3=O)NC(=O)[C@H](CCCCN)NC(=O)[C@H](CC(=O)O)NC(=O)[C@H](CC(N)=O)NC(=O)[C@H](CC(=O)O)NC(=O)[C@@H]2CCCN2C1=O [compound 257]
hNav1.5
  IC50: 5 µM
hNav1.7 [3]; [6]
  IC50: 0.07 µM
hNav1.3 [4]; IonWorks Quattro, use-dependent block, hNav1.3, read-out: IWQ Use Nav1.3
  IC50: 0.05 µM

## CC[C@H](C)[C@@H]1NC(=O)[C@@H]2CSSC[C@@H]3NC(=O)[C@H](C(C)C)NC(=O)[C@H](CC(C)C)NC(=O)[C@H](CC(N)=O)NC(=O)[C@@H]4CCCN4C(=O)[C@H](CCCNC(=N)N)NC(=O)[C@H](CSSC[C@H](NC(=O)[C@@H](N)CC(=O)O)C(=O)N[C@@H](CC(C)C)C(=O)NCC(=O)N[C@H](C)C(=O)N[C@@H](Cc4ccccc4)C(=O)N[C@@H](CCCNC(=N)N)C(=O)N[C@@H](CCCCN)C(=O)N2)NC(=O)[C@H](CSSC[C@@H](C(=O)N[C@@H](CCCCN)C(=O)N[C@@H](Cc2ccc(O)cc2)C(=O)N[C@H](C(=O)N[C@@H](Cc2ccccc2)C(N)=O)C(C)C)NC(=O)[C@H](Cc2c[nH]c4ccccc24)NC(=O)[C@H](CCCCN)NC(=O)[C@H](Cc2c[nH]cn2)NC(=O)[C@H]([C@@H](C)O)NC(=O)[C@H](CCCNC(=N)N)NC(=O)[C@H](CO)NC3=O)NC(=O)[C@H](CCCCN)NC(=O)[C@H](CC(=O)O)NC(=O)[C@H](CC(N)=O)NC(=O)[C@H](CC(=O)O)NC(=O)[C@@H]2CCCN2C1=O [compound 602]
hNav1.5
  IC50: 13.1 µM
hNav1.7 [3]
  IC50: 2.1 µM
hNav1.3 [4]
  IC50: 2.7 µM

## CC[C@H](C)[C@@H]1NC(=O)[C@@H]2CSSC[C@@H]3NC(=O)[C@H](C(C)C)NC(=O)[C@H](CC(C)C)NC(=O)[C@H](CC(N)=O)NC(=O)[C@@H]4CCCN4C(=O)[C@H](CCCNC(=N)N)NC(=O)[C@H](CSSC[C@H](NC(=O)[C@@H](N)CC(=O)O)C(=O)N[C@@H](CC(C)C)C(=O)NCC(=O)N[C@@H](C)C(=O)N[C@@H](CC(C)C)C(=O)N[C@@H](CCCNC(=N)N)C(=O)N[C@@H](CCCCN)C(=O)N2)NC(=O)[C@H](CSSC[C@@H](C(=O)N[C@@H](CCCCN)C(=O)N[C@@H](Cc2ccc(O)cc2)C(=O)N[C@H](C(=O)N[C@@H](Cc2ccccc2)C(N)=O)C(C)C)NC(=O)[C@H](Cc2c[nH]c4ccccc24)NC(=O)[C@H](CCCNC(=N)N)NC(=O)[C@H](Cc2cnc[nH]2)NC(=O)[C@H]([C@@H](C)O)NC(=O)[C@H](CCCNC(=N)N)NC(=O)[C@H](CO)NC3=O)NC(=O)[C@H](CCCCN)NC(=O)[C@H](CC(=O)O)NC(=O)[C@H](CC(N)=O)NC(=O)[C@H](CC(=O)O)NC(=O)[C@@H]2CCCN2C1=O [compound 810]
hNav1.5
  IC50: > 5 µM
hNav1.7 [3]; [6]
  IC50: 0.2 µM

## [Phe6,Atz(2 kDa EtO-PEG*-{[Phe6,Atz13*]GpTx-1(1-34)}) 13]GpTx-1(1-34) [Homodimeric Conjugate 1]
hNav1.7 [5]; read-out: IC50 against hNav1.7 channels
  IC50: 0.0012 µM
hNav1.7 [5]; read-out: IC50 against partially inactivated hNav1.7 channels
  IC50: 0.00066 µM
